Among the data in publication PMC2658647 (Annals of neurology, 2009) are Ki values, retold here.

For the test, the target named is eNOS (Bos taurus, UniProt P29473). As to the kind of experiment: NOS inhibition, hemoglobin capture assay. It counts as biochemical. The following applies: read-out: Ki eNOS; apparent Ki; recombinant enzyme; 10 µM L-arginine.

In the case of `N=C(NCCC[C@H](N)C(=O)O)N[N+](=O)[O-]` [L-NNA, L-N^ω-Nitroarginine], the Ki came to 750 nM.
